The chains behind the UniProt entries cited, without tags or fusion partners.
UniProt O75530, whole entry: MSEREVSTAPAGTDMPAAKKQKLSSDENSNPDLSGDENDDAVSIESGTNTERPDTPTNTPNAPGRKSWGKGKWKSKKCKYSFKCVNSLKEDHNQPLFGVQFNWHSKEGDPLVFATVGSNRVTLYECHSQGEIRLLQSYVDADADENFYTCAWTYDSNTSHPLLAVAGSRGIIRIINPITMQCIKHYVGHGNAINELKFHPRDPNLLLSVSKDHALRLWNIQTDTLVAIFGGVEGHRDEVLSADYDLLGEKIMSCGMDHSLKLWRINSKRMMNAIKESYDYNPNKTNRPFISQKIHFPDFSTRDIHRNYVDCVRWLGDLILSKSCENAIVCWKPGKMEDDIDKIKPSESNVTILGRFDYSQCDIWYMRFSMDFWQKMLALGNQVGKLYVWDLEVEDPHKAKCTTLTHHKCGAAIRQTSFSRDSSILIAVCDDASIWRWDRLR

In ChEMBL document CHEMBL3351265, “Astemizole arrests the proliferation of cancer cells by disrupting the EZH2-EED interaction of polycomb repressive complex 2” (J Med Chem, 2014):

Target: Polycomb protein EED (Homo sapiens, UniProt O75530)
Experiment: Displacement of FITC-labeled EZH2 peptide from recombinant N-terminal 6His-tagged EED (residues 81 to 441) (unknown origin) expressed in Escherichia coli strain BL21 (DE3) after 1 hr by fluorescence polarization assay

Compound `COc1ccc(CCN2CCC(Nc3nc4ccccc4n3Cc3ccc(F)cc3)CC2)cc1` [ASTEMIZOLE] has a Ki of 23 µM.
